ChEMBL document CHEMBL3784928, “Development and Characterization of Novel and Selective Inhibitors of Cytochrome P450 CYP26A1, the Human Liver Retinoic Acid Hydroxylase” (J Med Chem, 2016)
Activity calls are given as the source filed them. The rule behind the calls is not given here.

Tests used:
Homo sapiens = species: Homo sapiens; assay: Selectivity ratio of IC50 for microsomal fraction of human CYP26B1 to IC50 for microsomal fraction of human CYP26A1
[1] = Activation of human RARbeta at 1 uM by luciferase reporter gene assay

SMILES: CC1(C)CCC(C)(C)c2cc(C3(c4ccc5cc(C(=O)O)ccc5c4)SCCS3)ccc21
- Ratio IC50 (Homo sapiens): 17

SMILES: CC1(C)CCC(C)(C)c2cc(C3(c4ccc(/C=C/C(=O)O)cc4)OCCO3)ccc21
- Activity [1]: inactive
